Values of other authors, collected in patent US20110306579A1, “METHODS OF NEUROPROTECTION USING NEUROPROTECTIVE STEROIDS AND A VITAMIN D” (EMORY UNIVERSITY, priority 2009, published 2011).

Chains of the proteins cited; added tags and fusions are not shown. Lines headed by an entry give the natural chain unless they say otherwise; changes in a name come on top.
UniProt P06401: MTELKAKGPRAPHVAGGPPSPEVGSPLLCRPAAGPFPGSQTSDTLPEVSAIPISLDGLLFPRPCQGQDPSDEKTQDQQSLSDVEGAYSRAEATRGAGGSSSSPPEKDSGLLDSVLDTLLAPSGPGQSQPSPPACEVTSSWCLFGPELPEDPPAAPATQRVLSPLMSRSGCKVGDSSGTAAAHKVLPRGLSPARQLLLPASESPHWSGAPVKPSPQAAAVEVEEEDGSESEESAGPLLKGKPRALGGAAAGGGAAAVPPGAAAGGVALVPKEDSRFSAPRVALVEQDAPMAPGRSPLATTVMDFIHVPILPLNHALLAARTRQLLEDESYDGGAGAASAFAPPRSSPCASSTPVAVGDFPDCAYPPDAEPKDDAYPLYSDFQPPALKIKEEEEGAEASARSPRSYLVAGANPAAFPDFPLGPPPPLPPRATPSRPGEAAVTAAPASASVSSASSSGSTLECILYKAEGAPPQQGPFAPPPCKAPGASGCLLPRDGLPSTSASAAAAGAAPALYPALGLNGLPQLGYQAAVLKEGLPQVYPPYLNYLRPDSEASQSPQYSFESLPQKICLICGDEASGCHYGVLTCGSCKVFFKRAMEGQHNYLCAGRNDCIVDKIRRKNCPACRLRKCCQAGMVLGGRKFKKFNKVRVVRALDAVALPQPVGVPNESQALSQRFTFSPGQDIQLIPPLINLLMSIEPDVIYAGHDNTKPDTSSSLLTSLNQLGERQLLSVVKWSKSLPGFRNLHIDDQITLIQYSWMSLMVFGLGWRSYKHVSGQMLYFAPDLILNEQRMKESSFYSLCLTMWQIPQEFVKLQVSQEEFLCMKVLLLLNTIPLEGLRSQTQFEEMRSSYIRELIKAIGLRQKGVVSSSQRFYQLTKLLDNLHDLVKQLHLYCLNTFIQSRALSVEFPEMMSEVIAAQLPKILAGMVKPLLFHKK

Assays:
[1] = target: T1, classical progesterone receptor (PR) (Homo sapiens, UniProt P06401); conditions: cited from earlier work
[2] = target: T1, classical progesterone receptor (PR); conditions: cited from earlier work; remark: listed apart in the source

In the case of `CC(=O)[C@@H]1CC[C@@H]2[C@H]3CCC4=CC(=O)CC[C@@]4(C)[C@@H]3CC[C@]21C` [ent-PROG], the “affinity to the classical progesterone receptor (PR)” value [1] is listed as “moderate affinity” and the “activation of PR-mediated gene transcription” value [2] is listed as “does not activate”.
